Laboratory results published in patent US10287301B2 (Achillion Pharmaceuticals, Inc., priority 2015, dated 2019).
Like-named read-outs stand apart in the source and are kept apart here.

Protein sequences, listed by entry. Tags and fused reporters are not part of them. Residues count along the entry.
UniProt P00746, 26-253: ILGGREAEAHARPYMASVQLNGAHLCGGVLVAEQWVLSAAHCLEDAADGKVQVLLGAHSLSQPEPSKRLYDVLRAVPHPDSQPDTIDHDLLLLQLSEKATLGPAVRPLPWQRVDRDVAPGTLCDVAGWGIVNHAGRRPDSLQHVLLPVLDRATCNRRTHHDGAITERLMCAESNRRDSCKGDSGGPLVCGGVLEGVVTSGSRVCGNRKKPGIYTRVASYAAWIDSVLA

Molecular target: Human Factor D (Homo sapiens (Human), UniProt P00746)
Test: Human Factor D Assay
Format: biochemical
Experimental: Human Factor D (purified from human serum, Complement Technology, Inc.) at 80 nM final concentration was incubated with test compound at various concentrations for 5 minutes at room temperature in 50 mM Tris, 1M NaCl, pH 7.5. A synthetic substrate Z-L-Lys-SBzl and DTNB (Ellman's reagent) are added to final concentrations of 100 μM each. […] IC50 values are calculated by nonlinear regression of complement Factor D reaction rates as a function of test compound concentration.

SMILES | IC50 [nM] | further results
CC(=O)c1nn(CC(=O)N2C[C@H](F)C[C@H]2C(=O)NCC2CCN(CC(F)(F)F)C2)c2ccc(-c3cnc(C)nc3)cc12 (stereo partly drawn) [Compound 550, (2S,4R)-1-(2-(3-Acetyl-5-(2-methylpyrimidin-5-yl)-1H-indazol-1-yl)acetyl)-4-fluoro-N-((1-(2,2,2-trifluoroethyl)pyrrolidin-3-yl)methyl)pyrrolidine-2-carboxamide] | 1000 to 10000 | 
CC(=O)c1nn(CC(=O)N2C[C@H](F)C[C@H]2C(=O)Nc2ccnc(C)c2)c2ccc(-c3cnc(C)nc3)cc12 [Compound 565, (2S,4R)-1-(2-(3-Acetyl-5-(2-methylpyrimidin-5-yl)-1H-indazol-1-yl)acetyl)-4-fluoro-N-(2-methylpyridin-4-yl)pyrrolidine-2-carboxamide] | 1000 to 10000 | 
CC(=O)c1nn(CC(=O)N2CCC[C@H]2C(=O)Nc2cccc(C)n2)c2ccc(-c3ccc(C)nc3)cc12 [Compound 586, (S)-1-(2-(3-Acetyl-5-(6-methylpyridin-3-yl)-1H-indazol-1-yl)acetyl)-N-(6-methylpyridin-2-yl)pyrrolidine-2-carboxamide] | 1000 to 10000 | 
CC(=O)c1nn(CC(=O)N2CC[C@H]2C(=O)Nc2cccc(C)n2)c2ccc(-c3ccc4cccnc4c3)cc12 [Compound 590, (S)-1-(2-(3-Acetyl-5-(quinolin-7-yl)-1H-indazol-1-yl)acetyl)-N-(6-methylpyridin-2-yl)azetidine-2-carboxamide] | 1000 to 10000 | 
CC(=O)c1nn(CC(=O)N2C[C@H](F)C[C@H]2C(=O)NC2CCN(CC(F)(F)F)C2)c2ccc(-c3cnc(C)nc3)cc12 (stereo partly drawn) [Compound 610, (2S, 4R)-1-(2-(3-Acetyl-5-(2-methylpyrimidin-5-yl)-1H-indazol-1-yl)acetyl)-4-fluoro-N-(1-(2,2,2-trifluoroethyl)pyrrolidin-3-yl) pyrrolidine-2-carboxamide] | 1000 to 10000 | 
CC(=O)c1nn(CC(=O)N2C[C@H](F)C[C@H]2C(=O)N[C@H](C)C(F)=C(C)C)c2ccc(-c3cnc(C)nc3)cc12 [Compound 613, (2S,4R)-1-(2-(3-Acetyl-5-(2-methylpyrimidin-5-yl)-1H-indazol-1-yl)acetyl)-4-fluoro-N—((R)-3-fluoro-4-methylpent-3-en-2-yl)pyrrolidine-2-carboxamide] | 1000 to 10000 | 
CC(=O)c1nn(CC(=O)N2C[C@H](F)C[C@H]2C(=O)N[C@@H](C)C(F)=C(C)C)c2ccc(-c3cnc(C)nc3)cc12 [Compound 614, (2S,4R)-1-(2-(3-Acetyl-5-(2-methylpyrimidin-5-yl)-1H-indazol-1-yl)acetyl)-4-fluoro-N—((S)-3-fluoro-4-methylpent-3-en-2-yl)pyrrolidine-2-carboxamide] |  | IC50 (Human Factor D, Table 3, read-out: IC50): < 1000 nM
CC(=O)c1nn(CC(=O)N2C[C@H](F)C[C@H]2C(=O)Nc2cccc(C(=O)N(C)C)n2)c2ccc(-c3cnc(C)nc3)cc12 [Compound 618, 6-((2S,4R)-1-(2-(3-Acetyl-5-(2-methylpyrimidin-5-yl)-1H-indazol-1-yl)acetyl)-4-fluoropyrrolidine-2-carboxamido)-N,N-dimethylpicolinamide] | 1000 to 10000 | 
CNC(=O)c1cccc(NC(=O)[C@@H]2C[C@@H](F)CN2C(=O)Cn2nc(C(C)=O)c3cc(-c4cnc(C)nc4)ccc32)n1 [Compound 619, 6-((2S,4R)-1-(2-(3-Acetyl-5-(2-methylpyrimidin-5-yl)-1H-indazol-1-yl)acetyl)-4-fluoropyrrolidine-2-carboxamido)-N-methylpicolinamide] | 1000 to 10000 | 
Cc1cccc(NC(=O)[C@@H]2[C@H]3CC[C@H](C3)N2C(=O)Cn2cc(C(N)=O)c3cc(-c4cnc5cc(C)nn5c4)ccc32)n1 [Compound 691, 5-(2-Methylpyrazolo[1,5-a]pyrimidin-6-yl)-1-(2-((1R,3S,4S)-3-(6-methylpyridin-2-ylcarbamoyl)-2-azabicyclo[2.2.1]heptan-2-yl)-2-oxoethyl)-1H-indole-3-carboxamide] | 1000 to 10000 | 
CC(=O)c1cn(CC(=O)N2CC[C@H]2C(=O)Nc2cccc(C)n2)c2ccc(-c3cnc4cc(C)nn4c3)cc12 [Compound 692, (S)-1-(2-(3-Acetyl-5-(2-methylpyrazolo[1,5-a]pyrimidin-6-yl)-1H-indol-1-yl)acetyl)-N-(6-methylpyridin-2-yl)azetidine-2-carboxamide] | 1000 to 10000 | 
CC(=O)c1cn(CC(=O)N2C[C@H](F)C[C@H]2CCNS(=O)(=O)c2ccccc2)c2ccc(-c3cnc4cc(C)nn4c3)cc12 [Compound 697, N-(2-((2R,4R)-1-(2-(3-acetyl-5-(2-methylpyrazolo[1,5-a]pyrimidin-6-yl)-1H-indol-1-yl)acetyl)-4-fluoropyrrolidin-2-yl)ethyl)benzenesulfonamide] | 1000 to 10000 | 
CC(=O)c1nn(CC(=O)N2CCC[C@H]2C(=O)Nc2cccc(C)n2)c2ccc(-c3cnc4n3CCCC4)cc12 [Compound 700, (S)-1-(2-(3-Acetyl-5-(5,6,7,8-tetrahydroimidazo[1,2-a]pyridin-3-yl)-1H-indazol-1-yl)acetyl)-N-(6-methylpyridin-2-yl)pyrrolidine-2-carboxamide] | 1000 to 10000 | 
CC(=O)c1nn(CC(=O)N2C[C@@](F)(CN(C)C)C[C@H]2C(=O)Nc2nc(Br)ccc2C2CC2)c2ccc(-c3cnc(C)nc3)cc12 [Compound 733, (2S,4S)-1-(2-(3-Acetyl-5-(2-methylpyrimidin-5-yl)-1H-indazol-1-yl)acetyl)-N-(6-bromo-3-cyclopropylpyridin-2-yl)-4-((dimethylamino)methyl)-4-fluoropyrrolidine-2-carboxamide] | 1000 to 10000 | 
CC(=O)c1nn(CC(=O)N2C3CC3(CN3CCOCC3)C[C@H]2C(=O)Nc2nc(Br)ccc2C)c2ccc(-c3cnc(C)nc3)cc12 (stereo partly drawn) [Compound 751, (3S)-2-(2-(3-acetyl-5-(2-methylpyrimidin-5-yl)-1H-indazol-1-yl)acetyl)-N-(6-bromo-3-methylpyridin-2-yl)-5-(morpholinomethyl)-2-azabicyclo[3.1.0] hexane-3-carboxamide] | 1000 to 10000 | 
CC(=O)c1nn(CC(=O)N2C3CC3(CN3CCCC3)C[C@H]2C(=O)Nc2nc(Br)ccc2C)c2ccc(-c3cnc(C)nc3)cc12 (stereo partly drawn) [Compound 753, (3S)-2-(2-(3-Acetyl-5-(2-methylpyrimidin-5-yl)-1H-indazol-1-yl)acetyl)-N-(6-bromo-3-methylpyridin-2-yl)-5-(pyrrolidin-1-ylmethyl)-2-azabicyclo[3.1.0]hexane-3-carboxamide] | 1000 to 10000 | 
CC(=O)c1nn(CC(=O)N2C3CC3(CN3CCOCC3)C[C@H]2C(=O)Nc2nc(Br)ccc2C)c2ccc(-c3cnc(C)nc3)cc12 (stereo partly drawn) [Compound 754, (3S)-2-(2-(3-acetyl-5-(2-methylpyrimidin-5-yl)-1H-indazol-1-yl)acetyl)-N-(6-bromo-3-methylpyridin-2-yl)-5-(morpholinomethyl)-2-azabicyclo[3.1.0] hexane-3-carboxamide] |  | IC50 (Human Factor D, Table 3): 1000 to 10000 nM
